Patent US20260364181A1, “AKR1C3 Targeted Heterobifunctional Small Molecule Proteolysis Targeting Chimeras” (BOARD OF REGENTS OF THE UNIVERSITY OF NEBRASKA, priority 2022, published 2026)

The chains behind the UniProt entries cited, without tags or fusion partners.
UniProt P42330, whole entry: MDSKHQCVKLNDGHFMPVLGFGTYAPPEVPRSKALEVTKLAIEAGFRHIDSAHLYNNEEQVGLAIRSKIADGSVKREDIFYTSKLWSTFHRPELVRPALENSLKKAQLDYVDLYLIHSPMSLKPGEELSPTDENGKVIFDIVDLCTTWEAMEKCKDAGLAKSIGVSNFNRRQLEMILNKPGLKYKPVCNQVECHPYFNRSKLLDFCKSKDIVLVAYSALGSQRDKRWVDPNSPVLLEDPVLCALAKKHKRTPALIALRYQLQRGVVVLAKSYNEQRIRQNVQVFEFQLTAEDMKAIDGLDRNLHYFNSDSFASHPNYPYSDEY
UniProt Q04828, whole entry: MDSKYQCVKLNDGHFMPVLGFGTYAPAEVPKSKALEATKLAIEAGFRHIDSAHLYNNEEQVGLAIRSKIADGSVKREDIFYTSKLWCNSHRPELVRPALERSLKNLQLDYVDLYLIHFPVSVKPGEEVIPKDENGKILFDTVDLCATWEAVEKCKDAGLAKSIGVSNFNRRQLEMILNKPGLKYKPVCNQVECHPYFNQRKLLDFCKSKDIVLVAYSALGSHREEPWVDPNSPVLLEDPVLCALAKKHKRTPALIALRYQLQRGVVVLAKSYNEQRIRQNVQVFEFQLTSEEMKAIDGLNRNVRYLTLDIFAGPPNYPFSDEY
UniProt P52895, whole entry: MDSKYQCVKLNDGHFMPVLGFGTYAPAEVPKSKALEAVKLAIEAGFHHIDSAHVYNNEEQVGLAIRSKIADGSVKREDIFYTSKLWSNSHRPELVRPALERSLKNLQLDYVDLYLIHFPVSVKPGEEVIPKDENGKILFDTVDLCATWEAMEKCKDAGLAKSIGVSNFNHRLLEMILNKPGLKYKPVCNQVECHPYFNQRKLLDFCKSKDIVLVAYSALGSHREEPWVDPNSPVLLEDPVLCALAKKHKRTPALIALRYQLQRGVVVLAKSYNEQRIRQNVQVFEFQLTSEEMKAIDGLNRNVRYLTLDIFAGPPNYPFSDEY

How the values were obtained:
AKR1C3 [1] = biological target: T1, AKR1C3 (Homo sapiens, UniProt P42330); assay: AKR1C3 protein degradation in 22Rv1 prostate cancer cells (Western blot); details: in words
Description: (§1) Protein Expression via Western Blot. 22Rv1 cells were seeded in a 6-well plate and incubated overnight. Next day, the cells were treated with varying concentrations of 6 (1 and 10 μM) and 5 (0.5, 1, 10, 50, 100, 250, and 500 nM; 1, 10, and 50 μM) for 24 hours and 5 (1 and 10 nM) at different time points (0, 2, 4, 6, 12, 16, 24, 48, and 72 h). Whole cell lysates were extracted in RIPA lysis buffer containing protease inhibitor and EDTA (Fisher Scientific, PI78440). Protein concentrations in each sample was estimated following BCA assay (Pierce™ BCA protein assay kit, Fisher Scientific, PI23227) as per the manufacturer's protocol. […] Bands were quantified by densitometry using ImageJ software and fold change in AKR1C3, AKR1C1/C2, and ARv7 protein expression was determined based on actin controls. […]
The AKR1C3 degradation effect of PROTAC 5 was screened across a range of concentrations to identify a suitable treatment protocol. 22Rv1 cells were treated with increasing concentrations of […], DMSO or lenalidomide 6 at 1 μM and 10 μM for 24 hours, and the degradation profile was determined by Western blot analysis with antibody for AKR1C3.
(§2) As Compounds 3 and 4 exert their degradation activity at 72 hours (FIG. 2), the time-dependent degradation effect of Compound IA at 0, 2, 4, 6, 12, 16, 24, 48, and 72 h was then determined.

AKR1C1/C2 = AKR1C1/C2 protein degradation in 22Rv1 prostate cancer cells (Western blot); details: 43 nM (IC50 concentration); up to 72 hours; in words
Description: as §1, with “protocol. Proteins were standardized using RIPA lysis buffer with Laemelli SDS sample buffer (Thermo Scientific, AAJ61337AC) and heated at 1000C for 15 minutes. The proteins were resolved on a 4-12% premade gel (Invitrogen, NW04120BOX) at 60-90 V in 20× Bolt™ MES SDS running buffer (Fisher Scientific, B000202) and transferred onto a nitrocellulose membrane (Invitrogen, IB23001) using iBlot 2.” for “protocol.”
as §2

ARv7 = ARv7 protein degradation in 22Rv1 prostate cancer cells (Western blot); details: up to 72 hours, in words
Description: as §1, with “protocol. Proteins were standardized using RIPA lysis buffer with Laemelli SDS sample buffer (Thermo Scientific, AAJ61337AC) and heated at 1000C for 15 minutes. The proteins were resolved on a 4-12% premade gel (Invitrogen, NW04120BOX) at 60-90 V in 20× Bolt™ MES SDS running buffer (Fisher Scientific, B000202) and transferred onto a nitrocellulose membrane (Invitrogen, IB23001) using iBlot 2.” for “protocol.”
as §2

[2] = system: 22Rv1 prostate cancer cells; assay: 22Rv1 cell viability (MTS assay); details: read-out: IC50 (22Rv1 cell viability), 72 h, mean±standard deviation of two independent experiments
Description: Cell culture and reagents. 22Rv1 cells were purchased from the American Type Culture Collection (ATCC in 2016) and cultured in RPMI 1640 supplemented with 10% Fetal Bovine Serum (FBS, Fisher Scientific, MT35011CV) and Penicillin-Streptomycin Solution (1%, Fisher Scientific, MT30001Cl) at 37 °C in a humidified incubator with 5% carbon dioxide atmosphere. Stock solutions of E3 ligase ligand, lenalidomide 6 (10 mM), PROTAC 5 (25 mM), and AKR1C3 inhibitor 3 (100 mM) were prepared in DMSO.
Cell viability assay. Cells were seeded at a density of 10,000 cells/well in a 96-well plate containing 100 μL growth media per well and were incubated at 37 °C in a humidified incubator with 5% carbon dioxide over ~18-24 hours. Cells were treated with 6, 5, and 3 serially diluted at the indicated concentrations limiting the final DMSO concentration to less than 0.1% and incubated at 37 °C for 72 hours. 10 μL of MTS reagent (CellTiter96®Aqueous One Solution Reagent, Promega, G3580) was added to each well and incubated at the above-mentioned conditions for 4 hours. Absorbance was recorded at OD 490 nm on a Synergy LX multi-mode reader and the viability of cells were plotted as percentage of DMSO control.

AKR1C3 [3] = biological target: T1, AKR1C3; assay: AKR1C3 enzyme inhibition (oxidation of S-tetralol); details: read-out: IC50 (AKR1C3 inhibition); IC50 concentration used for treatment of 22Rv1 cells
Description: (§3) Enzyme Inhibition Assay. (S)-(+)-1,2,3,4-tetrahydro-1-naphthol (S-tetralol) was purchased from Sigma-Aldrich (St. Louis, MO). Nicotinamide adenine dinucleotide (NAD^+) and nicotinamide adenine dinucleotide phosphate (NADP^+) were purchased from Roche Diagnostics (Indianapolis, IN). Homogeneous recombinant enzymes AKR1C1, AKR1C2, AKR1C3 and AKR1C4 were prepared and purified as previously described.^3 The specific activities of AKR1C3 and AKR1C2 for the oxidation of S-tetralol are 2.0 and 1.5 μmol/(min mg), respectively.
(§4) Assay of Enzyme Activity. The dehydrogenase activities of AKR1C3 and AKR1C2 were determined by measuring the UV absorption of NADH formation at 340 nm using a Beckman DU-640 spectrophotometer. […] After continuously monitoring for 5 min, we recorded the increase in UV absorption using different concentrations of an enzyme to calculate the initial velocity and determine the specific activity of the enzyme.
(§5) IC50 Value Determination. The inhibitory potency for each compound was represented by IC50 values and measured as described before. The IC50 values of [COMPOUND LEFT OUT] and [COMPOUND LEFT OUT] analogues were determined by measuring their inhibition of the NADP+-dependent oxidation of S-tetralol catalyzed by AKR1C3 or AKR1C2. […]

AKR1C1 = AKR1C1 (Homo sapiens, UniProt Q04828); assay: AKR1C1 enzyme inhibition; details: read-out: IC50 versus AKR1C1; AKR1C1/2, these two isoforms
Description: as §3, §4, §5

AKR1C2 = AKR1C2 (Homo sapiens, UniProt P52895); assay: AKR1C2 enzyme inhibition (oxidation of S-tetralol); details: read-out: IC50 versus AKR1C2; AKR1C1/2, these two isoforms
Description: as §3, §4, §5

degradation of AKR1C3 (AKR1C3 [1]; 43 nM (IC50 concentration), up to 72 hours): no evidence of degradation
time course of AKR1C3 degradation (AKR1C3 [1]; 1 μM, 24-72 hours): time-dependent increase in degradation
IC50 [2]: 40.6 µM
IC50 (AKR1C3 [3]): 0.043 µM
IC50 (AKR1C1): > 100 µM
IC50 (AKR1C2): > 100 µM
SMILES: Cc1ccc(CNC(=O)c2cc(/C=C/C(=O)O)cc(-c3ccccc3)c2)cc1
degradation of AKR1C1/2 (AKR1C1/C2): no evidence of degradation
degradation of ARv7 (ARv7; 43 nM (IC50 concentration)): no evidence of degradation
time course of ARv7 degradation (ARv7; 1 μM): degraded in a time-dependent manner
